The list shows a part of the results, in another mix than the full data. The source made the active and inactive calls.

The test can be described thus: E. coli growth inhibition, primary screen, OD600 (AID 1053175). As to conditions: Escherichia coli growth, OD600, 23 h; active compounds read low.
`CCC(=O)N(c1ccccc1)C1(COC)CCN(CCn2nnn(CC)c2=O)CC1`: the OD600 absorbance was inactive: 0.769.
The result for `CCC(=O)N(c1ccccc1)C1(COC)CCN(CCc2cccs2)CC1` reads inactive: 0.743.

The values above are taken from PubChem BioAssay AID1053175 (ICCB-Longwood Screening Facility, Harvard Medical School, 2014).
